Earlier results in patent publication US5795865A, “Kallikrein-inhibiting "kunitz domain" proteins and analogues thereof” (Dyax Corp., priority 1996, dated 1998).

Conditions: about 840 mg, 80 open-heart surgery patients, FRAE89; cited from earlier work

In the case of “bovine pancreatic trypsin inhibitor [BPTI]”, the “reduction of blood loss” value is given as “almost half”.
